Assay results as given in ChEMBL document CHEMBL1144921, “14-amino, 14-alkylamino, and 14-acylamino analogs of oxymorphindole. Differential effects on opioid receptor binding and functional profiles” (J Med Chem, 2003).

Protein sequences, listed by entry. Tags and fused reporters are not part of them.
UniProt P41143, whole entry: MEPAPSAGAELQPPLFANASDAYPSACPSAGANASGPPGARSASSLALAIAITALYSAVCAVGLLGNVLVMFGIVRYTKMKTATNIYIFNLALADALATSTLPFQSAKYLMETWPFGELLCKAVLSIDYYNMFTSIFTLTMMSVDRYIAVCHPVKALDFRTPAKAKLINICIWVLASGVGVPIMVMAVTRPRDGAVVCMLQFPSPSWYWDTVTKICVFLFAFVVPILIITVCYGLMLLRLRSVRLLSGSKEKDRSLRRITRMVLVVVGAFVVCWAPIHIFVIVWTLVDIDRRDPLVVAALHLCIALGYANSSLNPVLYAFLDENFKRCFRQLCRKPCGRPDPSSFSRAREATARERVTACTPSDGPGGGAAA

Target: Delta-type opioid receptor (Homo sapiens, UniProt P41143)
Test: Stimulation of [35S]GTP-gamma-S, binding at human recombinant Opioid receptor delta 1 transfected into CHO cells.
Assay type: functional, cell-based

Which EC50 does the source give for `C[C@@H](NC(=O)[C@@H](N)Cc1ccc(O)cc1)C(=O)NCC(=O)N(C)[C@@H](Cc1ccccc1)C(=O)NCCO` [DAMGO] here?
Its EC50 is > 10 µM.
